Assay: Intraocular pharmacokinetics of dexamethasone palmitate and dexamethasone following intravitreal administration
Conditions: for DP/D ratio in choroid / DP/D ratio in retina: single intravitreal injection of 0.8% dexamethasone palmitate emulsion
Description: Analytes and internal standard (roxithromycine) were extracted from the tissues using acetonitrile and separated by reverse phase liquid chromatography with a C8 column and a gradient mobile phase. […] The unweighed linear model was applied.
All concentrations are expressed in ng/g.

[1] = rabbit, single intravitreal injection 100 uL of 0.8% dexamethasone palmitate emulsion (800 ug), Day 60

Substance: dexamethasone palmitate [DP]
- amount of prodrug remaining in retina and choroid (following IVT injection of 800 ug of prodrug, 2 months): considerable amounts
- Concentration in retina, Mean (rabbit, single intravitreal injection 100 uL of 0.8% dexamethasone palmitate emulsion (800 ug), Day 7): 93 nmol/g
- Concentration in choroid, Mean (rabbit, single intravitreal injection 100 uL of 0.8% dexamethasone palmitate emulsion (800 ug), Day 14): 22 nmol/g
- Concentration in aqueous humor, Mean [1]: 0 nmol/g
- Concentration in choroid, Mean [1]: 52 nmol/g
- Concentration in retina, Mean [1]: 55 nmol/g
- DP/D ratio in choroid (rabbit, Day 1): 15.91
- DP/D ratio in retina (rabbit, Day 1): 15.14
- DP/D ratio in choroid (rabbit, Day 7): 8.58
- DP/D ratio in retina (rabbit, Day 7): 8.45
- DP/D ratio in choroid (rabbit, Day 14): 2.44
- DP/D ratio in retina (rabbit, Day 14): 22.6
- DP/D ratio in choroid (rabbit, Day 28): 35.65
- DP/D ratio in retina (rabbit, Day 28): 36.5
- DP/D ratio in choroid (rabbit, Day 60): 17.33
- DP/D ratio in retina (rabbit, Day 60): 25

From patent US9192567B2, “Method for treating eye disease or conditions affecting the posterior segment of the eye” (SANTEN SAS, priority 2006, dated 2015)
